The values that follow are results of earlier work, collected in patent US20240109972A1, “ANTIBODY AND TAXANE COMBINATION THERAPY” (Genmab A/S, priority 2020, published 2024).

The data set concerns SCCHN. The note with it: cetuximab added to platinum and 5-FU vs platinum and 5-FU alone; cited from earlier work.

Consider cetuximab, for which the Survival is reported as 10.1 months and the mPFS is 3.3 months.
